Literature values as cited in US5792622A, “Assay for chemicals” (priority 1995, dated 1998).

Tested on: fish (trout fingerlings)
Details: Table 8, trout fingerlings; cited from earlier work

Substance: Mercury
- Fish LD50 (50% death of the fish): 0.01-.9 ppm
